From PubChem BioAssay AID488794 (Sanford-Burnham Center for Chemical Genomics, 2010) come the findings set out here.

This is a selection; strong and weak results do not stand in their true shares. Active and inactive are the calls of the source. Cut-off read from the data, not from the text of the source: active = inhibition above about 50%; inactive = the rest.

The nature of this assay: NALP3 inhibitors in yeast, repeat test, confirmation, luminescence, single concentration, retest (AID 488794). The following applies: yeast expressing human NALP3, luminescence read-out; at 10 µM; active compounds read high.
In the case of `CC(C)(C)OC(=O)N1CCC(Nc2ccccc2)CC1`, the inhibition (commonly the percentage by which the read-out fell short of the control) was inactive: 40.8%.
